From US20250282798A1, “HETEROARYL-SUBSTITUTED BICYCLIC COMPOUND AND USE THEREOF” (Medshine Discovery Inc., priority 2022, published 2025)
Where two headings read alike, the source gives them in different places.

Chains of the proteins cited; added tags and fusions are not shown.
UniProt Q92918, whole entry: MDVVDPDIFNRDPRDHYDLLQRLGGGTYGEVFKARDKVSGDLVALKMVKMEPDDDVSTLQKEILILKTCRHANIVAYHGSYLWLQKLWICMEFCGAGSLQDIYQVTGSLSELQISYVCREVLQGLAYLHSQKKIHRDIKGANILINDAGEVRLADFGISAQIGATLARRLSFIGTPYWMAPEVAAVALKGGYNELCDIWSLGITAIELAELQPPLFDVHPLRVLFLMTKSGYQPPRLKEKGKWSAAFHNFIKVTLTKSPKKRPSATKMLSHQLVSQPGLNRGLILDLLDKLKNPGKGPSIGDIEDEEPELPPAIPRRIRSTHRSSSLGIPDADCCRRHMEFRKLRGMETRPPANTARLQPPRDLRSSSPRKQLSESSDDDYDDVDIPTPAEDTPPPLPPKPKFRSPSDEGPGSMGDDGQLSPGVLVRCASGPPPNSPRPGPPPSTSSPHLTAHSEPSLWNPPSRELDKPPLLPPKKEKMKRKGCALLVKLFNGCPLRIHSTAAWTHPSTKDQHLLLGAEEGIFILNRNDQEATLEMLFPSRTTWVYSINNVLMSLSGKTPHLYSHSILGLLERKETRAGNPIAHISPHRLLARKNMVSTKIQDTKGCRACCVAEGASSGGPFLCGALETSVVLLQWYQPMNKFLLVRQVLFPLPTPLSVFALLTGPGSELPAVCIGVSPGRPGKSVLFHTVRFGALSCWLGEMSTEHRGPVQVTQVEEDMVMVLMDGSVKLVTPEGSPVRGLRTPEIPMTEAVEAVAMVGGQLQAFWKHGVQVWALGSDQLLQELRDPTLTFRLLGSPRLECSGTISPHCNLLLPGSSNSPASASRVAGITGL

Legend:
[1] = In vitro metabolic stability in human liver microsomes; details: 1 μM compound, 0.5 mg/mL protein, tested form: TFA
[2] = tested on: SLP76 phosphorylation in Jurkat cells; assay: Inhibition of SLP76 phosphorylation in Jurkat cells; details: read-out: IC50 (inhibition of SLP76 phosphorylation), anti-CD3 antibody 10 μg/mL, tested form: TFA
human HPK1 = human HPK1 (Homo sapiens (Human), UniProt Q92918); assay: Kinase activity assay using ADP-Glo method (Method 2); format: biochemical; details: read-out: HPK1 IC50, ATP concentration 10 μM, tested form: TFA
[3] = Pharmacokinetic evaluation in mice; details: tested form: TFA
MDR1-MDCK II cell line = assay: Permeability evaluation in MDR1-MDCK II cells; details: tested form: TFA; for Efflux ratio / Permeability Papp A to B / Permeability Papp B to A: 2.00 μM, 150 minutes; for Conclusion of the permeability: class by Papp
[4] = HPK1 enzyme concentration 0.05 nM

Question: Which “CLint(liver)” value [1] does the source give for `CN1Cc2nc(Nc3cnc(-c4ccnc5c4ccn5C)c4c3C(=O)NC4)ccc2N2CCOCC2C1` (single isomer, unassigned) [Trifluoroacetate of compound 40] here?
Answer: 68 mL/min/kg

Question: And the T1/2 [1]?
Answer: 18 min

Question: With `CN1Cc2nc(Nc3cnc(-c4cnc5cc(F)ccn45)c4c3C(=O)NC4)ccc2N2CCOCC2C1` (stereo not drawn) as the molecule, how does the IC50 [2] read?
Answer: 0.138 µM

Question: What does the source list for `[2H]C([2H])([2H])n1ccc2c(-c3ncc(Nc4ccc5c(n4)CN(C)CC4COCCN54)c4c3CNC4=O)ccnc21` (single isomer, unassigned) [Trifluoroacetate of compound 54-2]?
Answer: IC50 [2]: 0.116 µM; CLint(liver) [1]: 40 mL/min/kg; T1/2 [1]: 32 min

Question: With `[2H]C([2H])([2H])n1ccc2c(-c3ncc(Nc4ccc5c(n4)CN(C)CC4COCCN54)c4c3CNC4=O)ccnc21` (single isomer, unassigned) [Trifluoroacetate of compound 57] as the molecule, how does the IC50 (human HPK1; [4]) read?
Answer: 0.00038 µM

Question: And the “CLint(liver)” value [1]?
Answer: 49 mL/min/kg

Question: What about the T1/2 [1] of the same molecule?
Answer: 25 min

Question: With `CN1Cc2nc(Nc3cnc(-c4ccnc5c4ccn5C)c4c3C(=O)NC4)ccc2N2CCOCC2C1` (single isomer, unassigned) [Trifluoroacetate of compound 24-3] as the molecule, how does the AUC0-inf ([3]; IV 2 mg/kg) read?
Answer: 0.633 µM·h

Question: What about the AUC0-last ([3]; IV 2 mg/kg) of the same molecule?
Answer: 0.63 µM·h

Question: What about the C0 ([3]; IV 2 mg/kg) of the same molecule?
Answer: 2.23 µM

Question: And the Cl ([3]; IV 2 mg/kg)?
Answer: 145 mL/min/kg

Question: What about the T1/2 ([3]; IV 2 mg/kg) of the same molecule?
Answer: 24 min

Question: And the Tlast ([3]; IV 2 mg/kg)?
Answer: 4 h

Question: What about the Vdss ([3]; IV 2 mg/kg) of the same molecule?
Answer: 3.2 L/kg

Question: What about the “F (%)” value ([3]; PO 75 mg/kg vs IV 2 mg/kg, calculated using AUC0-last) of the same molecule?
Answer: 42%

Question: What about the AUC0-inf ([3]; PO 75 mg/kg) of the same molecule?
Answer: 9.971 µM·h

Question: What about the AUC0-last ([3]; PO 75 mg/kg) of the same molecule?
Answer: 9.936 µM·h

Question: And the Cmax ([3]; PO 75 mg/kg)?
Answer: 4.33 µM

Question: What about the T1/2 ([3]; PO 75 mg/kg) of the same molecule?
Answer: 54 min

Question: And the Tlast ([3]; PO 75 mg/kg)?
Answer: 8 h

Question: What about the Tmax ([3]; PO 75 mg/kg) of the same molecule?
Answer: 60 min

Question: And the IC50 [2]?
Answer: 0.064 µM

Question: And the “CLint(liver)” value [1]?
Answer: 58 mL/min/kg

Question: What about the T1/2 [1] of the same molecule?
Answer: 21 min

Question: What about the Efflux ratio (MDR1-MDCK II cell line) of the same molecule?
Answer: 12.4

Question: And the “Permeability Papp A to B” value (MDR1-MDCK II cell line)?
Answer: 2.31 10^−6 cm/s

Question: And the “Permeability Papp B to A” value (MDR1-MDCK II cell line)?
Answer: 28.60 10^−6 cm/s

Question: What about the “Conclusion of the permeability” value (MDR1-MDCK II cell line) of the same molecule?
Answer: Medium (Medium permeability 1.0 < Papp < 5.5 (×10^−6 cm/s))

Question: Which “CLint(liver)” value [1] does the source give for `CN1Cc2nc(Nc3cnc(-c4ccnc5c4ccn5C)c4c3C(=O)NC4)ccc2N2CCOCC2C1` (single isomer, unassigned) [Trifluoroacetate of compound 24] here?
Answer: 58 mL/min/kg

Question: And the T1/2 [1]?
Answer: 21 min

Question: With `O=C1NCc2c(-c3cnc4cc(F)ccn34)ccc(Nc3ccc4c(n3)OC[C@H]3COC[C@@H]43)c21` (relative stereo) as the molecule, how does the “CLint(liver)” value [1] read?
Answer: 54 mL/min/kg

Question: What about the T1/2 [1] of the same molecule?
Answer: 23 min

Question: Which IC50 (human HPK1; HPK1 enzyme concentration 0.3 nM) does the source give for `CCN1Cc2nc(Nc3ccc(-c4ccnc5c4ccn5C)c4c3C(=O)NC4)ccc2N2CCOCC2C1` (stereo not drawn) here?
Answer: 0.0003 µM

Question: With `Cn1ccc2c(-c3ccc(Nc4ccc5c(n4)CNCC4COCCN54)c4c3CNC4=O)ccnc21` (stereo not drawn) as the molecule, how does the IC50 [2] read?
Answer: 0.075 µM

Question: Which results are given for `[2H]C([2H])([2H])n1ccc2c(-c3ncc(Nc4ccc5c(n4)OC[C@@H]4COCCN54)c4c3CNC4=O)ccnc21`?
Answer: IC50 [2]: 0.268 µM; CLint(liver) [1]: 28 mL/min/kg; T1/2 [1]: 44 min

Question: Which results are given for `O=C1NCc2c(-c3cnc4cc(F)ccn34)ccc(Nc3ccc4c(n3)OC[C@@H]3COCC[C@H]43)c21` (relative stereo)?
Answer: CLint(liver) [1]: 64 mL/min/kg; T1/2 [1]: 20 min; Efflux ratio (MDR1-MDCK II cell line): 5.39; Permeability Papp A to B (MDR1-MDCK II cell line): 3.35 10^−6 cm/s; Permeability Papp B to A (MDR1-MDCK II cell line): 18.05 10^−6 cm/s; Conclusion of the permeability (MDR1-MDCK II cell line): Medium (Medium permeability 1.0 < Papp < 5.5 (×10^−6 cm/s))

Question: Which IC50 (human HPK1; [4]) does the source give for `[2H]C([2H])([2H])n1ccc2c(-c3ncc(Nc4ccc5c(n4)CN(C)CC4COCCN54)c4c3CNC4=O)ccnc21` (single isomer, unassigned) [Trifluoroacetate of compound 54] here?
Answer: 0.00041 µM

Question: And the “CLint(liver)” value [1]?
Answer: 66 mL/min/kg

Question: What about the T1/2 [1] of the same molecule?
Answer: 19 min
